Measurements from US5824692A (priority 1995, dated 1998).

Target: high affinity CNS nicotinic receptors
Assay type: binding, rat (Sprague-Dawley)

NCC/C=C/c1cncnc1.O=C(O)/C=C/C(=O)O [Sample No. 1, (E)-4-(5-pyrimidinyl)-3-butene-1-amine monofumarate]
Ki: 269 nM
